The subject of experiment [1] is Thoracic aorta. Kind of experiment: Vasodilatory activity in Wistar rat thoracic aorta assessed as inhibition of L-phenylephrine-induced contraction in presence of 1 uM 1H-[1,2,4]oxadiazolo[4,3-a]quinoxalin-1-one. The following applies: strain Wistar.
The test system of experiment [2] is Thoracic aorta. Kind of experiment: Vasodilatory activity in Wistar rat denuded thoracic aorta assessed as inhibition of L-phenylephrine-induced contraction. As to conditions: strain Wistar.

Consider 2 compounds from ChEMBL document CHEMBL2169848, “Synthesis physicochemical profile and PAMPA study of new NO-donor edaravone co-drugs” (Bioorg Med Chem, 2012).

Broadly, the EC50 is the concentration that produces a half-maximal response.

Turning to `O=C(O)CCCC(CO[N+](=O)[O-])O[N+](=O)[O-]` (centres undefined), the EC50 in experiment [1] was over 100 µM; in experiment [2] it was 5.8 µM.
For `O=[N+]([O-])OCC(CCCCO)O[N+](=O)[O-]` (centres undefined), the EC50 in experiment [1] was over 100 µM; in experiment [2], 0.83 µM.
